The list shows a part of the results, in another mix than the full data. Inconclusive results are not listed. Activity calls are given as the source filed them. Calls come from the whole dose curve; as a rule, active = well fitted inhibition curve with a large enough effect; inconclusive = small, poorly fitted or top-dose-only effect; inactive = no such curve, though single readings can be large or run the other way.
% is set by controls: 0 for no effect and ±100 for the full control effect.

By UniProt entry, the sequences of proteins in these tests, tags left out.
UniProt Q99714, whole entry: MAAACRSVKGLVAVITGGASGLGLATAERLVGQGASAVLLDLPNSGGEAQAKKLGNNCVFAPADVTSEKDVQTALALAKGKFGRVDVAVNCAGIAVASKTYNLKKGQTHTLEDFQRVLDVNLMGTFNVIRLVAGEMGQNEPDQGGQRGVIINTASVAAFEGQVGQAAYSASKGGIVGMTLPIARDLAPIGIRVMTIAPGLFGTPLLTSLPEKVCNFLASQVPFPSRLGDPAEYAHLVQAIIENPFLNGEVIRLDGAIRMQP

For this assay, the target named is 3-hydroxyacyl-CoA dehydrogenase type-2 (Homo sapiens) (UniProt Q99714). As to the kind of experiment: qHTS Assay for Inhibitors of HADH2 (Hydroxyacyl-Coenzyme A Dehydrogenase, Type II). Note: nearly all actives have a fitted effect of over 60% in size. Particulars: recombinant HADH2, NADH fluorescence, beta-hydroxybutyryl-CoA; at 57.1 µM (top of the series). For orientation: qHTS replaces the single test concentration by a dilution series.
As for `O=[N+]([O-])C(Cl)(Cl)Cl`, the activity change, negative = inhibition was inactive: 0.454%.
In the case of `CN(CCCl)CCCl`, the activity change, negative = inhibition was inactive: -7.96%.

Values taken from PubChem BioAssay AID886 (National Center for Advancing Translational Sciences (NCATS), 2007).
